In PMC3190642 (Biochemistry, 2011):
Numbering of substitutions follows the chain as printed. Names and notes keep the numbering of the source.

B1: E1o (Escherichia coli K-12) (protein)
chain: MQNSALKAWLDSSYLSGANQSWIEQLYEDFLTDPDSVDANWRSTFQQLPGTGVKPDQFHSQTREYFRRLAKDASRYSSTISDPDTNVKQVKVLQLINAYRFRGHQHANLDPLGLWQQDKVADLDPSFHDLTEADFQETFNVGSFASGKETMKLGELLEALKQTYCGPIGAEYMHITSTEEKRWIQQRIESGRATFNSEEKKRFLSELTAAEGLERYLGAKFPGAKRFSLEGGDALIPMLKEMIRHAGNSGTREVVLGMAHRGRLNVLVNVLGKKPQDLFDEFAGKHKEHLGTGDVKYHMGFSSDFQTDGGLVHLALAFNPSHLEIVSPVVIGSVRARLDRLDEPSSNKVLPITIHGDAAVTGQGVVQETLNMSKARGYEVGGTVRIVINNQVGFTTSNPLDARSTPYCTDIGKMVQAPIFHVNADDPEAVAFVTRLALDFRNTFKRDVFIDLVCYRRHGHNEADEPSATQPLMYQKIKKHPTPRKIYADKLEQEKVATLEDATEMVNLYRDALDAGDCVVAEWRPMNMHSFTWSPYLNHEWDEEYPNKVEMKRLQELAKRISTVPEAVEMQSRVAKIYGDRQAMAAGEKLFDWGGAENLAYATLVDEGIPVRLSGEDSGRGTFFHRHAVIHNQSNGSTYTPLQHIHNGQGAFRVWDSVLSEEAVLAFEYGYATAEPRTLTIWEAQFGDFANGAQVVIDQFISSGEQKWGRMCGLVMLLPHGYEGQGPEHSSARLERYLQLCAEQNMQVCVPSTPAQVYHMLRRQALRGMRRPLVVMSPKSLLRHPLAVSSLEELANGTFLPAIGEIDELDPKGVKRVVMCSGKVYYDLLEQRRKNNQHDVAIVRIEQLYPFPHKAMQEVLQQFAHVKDFVWCQEEPLNQGAWYCSQHHFREVIPFGASLRYAGRPASASPAVGYMSVHQKQQQDLVNDALNVE
B2: E1o (Escherichia coli K-12; H298L) (protein)
chain: B1 chain with H298L
B3: E1o (Escherichia coli K-12; H298V) (protein)
chain: B1 chain with H298V
B4: E1o (Escherichia coli K-12; H298D) (protein)
chain: B1 chain with H298D
B5: E1o (Escherichia coli K-12; H298T) (protein)
chain: B1 chain with H298T
B6: E1o (Escherichia coli K-12; H260E/H298N) (protein)
chain: B1 chain with H260E, H298N
B7: E1o (Escherichia coli K-12; H260E) (protein)
chain: B1 chain with H260E

How the values were obtained:
[1] = biological target: E1o (Escherichia coli, UniProt P0AFG3); assay: biochemical
[2] = biological target: E1o (Escherichia coli, UniProt P0AFG3, H298D); assay: biochemical
[3] = substrate: CCCC(=O)C(=O)O; assay: purified protein; details: DCPIP as electron acceptor
[4] = substrate: O=C(O)CCC(=O)C(=O)O; assay: purified protein; details: DCPIP as electron acceptor

Molecule | Kd [1] | Kd [2] | Km [3] | kcat [3] | kcat/Km [3] | Km [4] | kcat [4] | kcat/Km [4]
CC(=O)[PH](=O)O [AcP^−] | 320 µM |  |  |  |  |  |  | 
CCC(=O)[PH](=O)O [PP^−] | 39 µM | 9.6 µM |  |  |  |  |  | 
COP(=O)(O)C(=O)CCC(=O)O [SPME^−] | 10 µM |  |  |  |  |  |  | 
B1 |  |  | 16.3 ± 4.00 mM | 0.076 s⁻¹ | 4.7 M⁻¹ s⁻¹ | 2.61 ± 0.376 × 10^-3 mM | 2.15 s⁻¹ | 824000 M⁻¹ s⁻¹
B2 |  |  | 6.30 ± 0.64 mM | 0.094 s⁻¹ | 15 M⁻¹ s⁻¹ | 3.41 ± 0.237 × 10^-3 mM | 0.415 s⁻¹ | 122000 M⁻¹ s⁻¹
B3 |  |  | 8.96 ± 0.005 mM | 0.556 s⁻¹ | 62 M⁻¹ s⁻¹ | 165 ± 6 × 10^-3 mM | 0.099 s⁻¹ | 600 M⁻¹ s⁻¹
B4 |  |  | 7.02 ± 0.023 mM | 1.24 s⁻¹ | 180 M⁻¹ s⁻¹ |  |  | 
B5 |  |  | 15.3 ± 1.00 mM | 0.03 s⁻¹ | 2 M⁻¹ s⁻¹ | 4.25 ± 0.160 × 10^-3 mM | 0.0064 s⁻¹ | 1500 M⁻¹ s⁻¹
B6 |  |  |  |  |  | 2.73 ± 0.469 × 10^-3 mM | 0.134 s⁻¹ | 49100 M⁻¹ s⁻¹
B7 |  |  |  |  |  | 383 ± 35.5 × 10^-3 mM |  | 
